One experiment has as its target hNET (Homo sapiens (Human), UniProt P23975). Nature of the experiment: NET radioligand binding assay ([3H]nisoxetine, HEK-293 membranes). To be noted: recombinant HEK-293 membranes, read-out: Binding Affinity (IC50, nM) NET. The procedure: (§1) The medium was removed from the flasks and the cells rinsed with HBSS without Ca and without Mg. The cells were then incubated for 5-10 minutes in 10 mM Tris-Cl, pH 7.5, 5 mM EDTA before the cells were lifted with a combination of pipetting and scraping, as needed. The cell suspension was collected into centrifuge bottles and homogenized for 30 seconds with a Polytron homogenizer. The suspension was centrifuged for 30 minutes at 32,000×g, 4° C. The supernatant was decanted and the pellet resuspended and homogenized in 50 mM Tris-Cl, pH 7.5, 1 mM EDTA for 10 seconds. The suspension was then centrifuged again for 30 minutes at 32,000×g, 4° C. The supernatant was decanted and the pellet resuspended in 50 mM Tris-Cl, pH 7.5, 1 mM EDTA and briefly homogenized. A Bradford assay (Bio-rad) was performed and the membrane preparation diluted to 2 mg/ml with 50 mM Tris-Cl, pH 7.5, 1 mM EDTA. Aliquots were prepared, and then frozen and stored at −80° C.
Compounds were dissolved in 100% DMSO at a concentration 100 times the desired highest assay concentration, serially diluted 1:3 in 100% DMSO, and 1.0 μl/well of each solution was dispensed to a Nunc polypropylene, round bottom, 384-well plate. […] The plates were air-dried overnight, 12 μl/well of MicroScint scintillation fluid added, and the plates counted in a Trilux. […]

Amino acid sequences for entries named in this document (tags omitted).
UniProt P23975, whole entry: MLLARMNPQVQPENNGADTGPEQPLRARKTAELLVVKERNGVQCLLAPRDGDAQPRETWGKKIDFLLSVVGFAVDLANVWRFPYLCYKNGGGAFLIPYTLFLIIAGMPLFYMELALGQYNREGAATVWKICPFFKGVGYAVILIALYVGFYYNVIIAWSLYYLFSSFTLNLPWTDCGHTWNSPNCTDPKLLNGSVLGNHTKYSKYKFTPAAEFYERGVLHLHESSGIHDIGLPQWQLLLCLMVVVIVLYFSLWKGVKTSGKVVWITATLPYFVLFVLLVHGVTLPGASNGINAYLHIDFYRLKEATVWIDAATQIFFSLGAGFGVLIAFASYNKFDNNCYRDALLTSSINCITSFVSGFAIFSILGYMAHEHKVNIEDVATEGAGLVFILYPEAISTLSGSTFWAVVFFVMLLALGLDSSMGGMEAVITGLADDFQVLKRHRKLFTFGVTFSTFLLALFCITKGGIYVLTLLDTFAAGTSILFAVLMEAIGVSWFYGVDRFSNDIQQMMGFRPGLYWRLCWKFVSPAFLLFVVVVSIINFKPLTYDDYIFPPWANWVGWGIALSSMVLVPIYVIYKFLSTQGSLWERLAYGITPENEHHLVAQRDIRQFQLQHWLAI
UniProt Q01959, whole entry: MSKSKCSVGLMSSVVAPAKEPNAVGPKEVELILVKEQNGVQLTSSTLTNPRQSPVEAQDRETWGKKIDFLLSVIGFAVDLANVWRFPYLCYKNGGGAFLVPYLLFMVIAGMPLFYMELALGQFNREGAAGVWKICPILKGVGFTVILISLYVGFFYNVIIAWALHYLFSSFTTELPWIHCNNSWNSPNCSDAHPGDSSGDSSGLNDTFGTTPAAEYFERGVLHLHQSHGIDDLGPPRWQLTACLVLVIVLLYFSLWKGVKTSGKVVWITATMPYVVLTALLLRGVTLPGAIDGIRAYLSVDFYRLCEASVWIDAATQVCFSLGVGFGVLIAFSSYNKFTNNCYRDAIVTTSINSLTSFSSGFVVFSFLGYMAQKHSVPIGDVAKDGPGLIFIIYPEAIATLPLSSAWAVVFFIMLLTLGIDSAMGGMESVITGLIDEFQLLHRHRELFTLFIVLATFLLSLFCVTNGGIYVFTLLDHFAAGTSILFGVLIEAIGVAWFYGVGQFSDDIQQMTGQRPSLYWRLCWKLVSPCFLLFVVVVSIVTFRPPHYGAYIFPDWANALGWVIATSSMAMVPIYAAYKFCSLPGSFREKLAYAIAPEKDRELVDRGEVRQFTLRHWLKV
UniProt P31645, whole entry: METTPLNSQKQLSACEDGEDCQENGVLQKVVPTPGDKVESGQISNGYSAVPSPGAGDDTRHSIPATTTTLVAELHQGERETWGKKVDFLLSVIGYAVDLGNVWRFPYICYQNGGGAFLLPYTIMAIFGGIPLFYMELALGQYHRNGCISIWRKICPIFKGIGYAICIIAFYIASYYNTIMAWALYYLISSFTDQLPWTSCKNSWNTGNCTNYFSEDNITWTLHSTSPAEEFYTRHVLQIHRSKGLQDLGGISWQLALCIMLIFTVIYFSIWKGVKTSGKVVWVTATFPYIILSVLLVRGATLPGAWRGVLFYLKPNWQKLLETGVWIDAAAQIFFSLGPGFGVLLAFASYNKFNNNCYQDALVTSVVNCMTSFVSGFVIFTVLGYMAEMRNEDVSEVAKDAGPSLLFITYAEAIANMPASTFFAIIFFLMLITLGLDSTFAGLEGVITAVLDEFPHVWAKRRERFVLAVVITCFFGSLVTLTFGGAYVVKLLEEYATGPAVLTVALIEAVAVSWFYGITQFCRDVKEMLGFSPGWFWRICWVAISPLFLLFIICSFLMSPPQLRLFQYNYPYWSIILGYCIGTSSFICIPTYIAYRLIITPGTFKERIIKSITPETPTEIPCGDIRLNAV

The target in the next experiment is hDAT (Homo sapiens (Human), UniProt Q01959). Nature of the experiment: DAT radioligand binding assay ([125I]RTI-55, HEK-293 membranes). Particulars: recombinant HEK-293 membranes, read-out: Binding Affinity (IC50, nM) DAT. The procedure: Recombinant HEK-293 cells expressing either the hSERT, hDAT, or hNET proteins were harvested from T-175 flasks as follows. The medium was removed from the flasks and the cells rinsed with HBSS without Ca and without Mg. The cells were then incubated for 5-10 minutes in 10 mM Tris-Cl, pH 7.5, 5 mM EDTA before the cells were lifted with a combination of pipetting and scraping, as needed. The cell suspension was collected into centrifuge bottles and homogenized for 30 seconds with a Polytron homogenizer. The suspension was centrifuged for 30 minutes at 32,000×g, 4° C. The supernatant was decanted and the pellet resuspended and homogenized in 50 mM Tris-Cl, pH 7.5, 1 mM EDTA for 10 seconds. […]
Compounds were dissolved in 100% DMSO at a concentration 100 times the desired highest assay concentration, serially diluted 1:3 in 100% DMSO, and 0.4 μl/well of each solution was dispensed to a Nunc polypropylene, round bottom, 384-well plate. […] The plates were air-dried overnight, 12 μl/well of MicroScint scintillation fluid added, and the plates counted in a Trilux.
The raw data was normalized to percent inhibition using control wells defining 0% (DMSO only) and 100% (selective inhibitor) inhibition which were run on each plate. […] The radioligand concentration chosen for each assay corresponds to the Kd concentration determined through saturation binding analysis for each assay.

The next experiment has as its target hSERT (Homo sapiens (Human), UniProt P31645). Nature of the experiment: SERT radioligand binding assay ([125I]RTI-55, HEK-293 membranes). To be noted: recombinant HEK-293 membranes, read-out: Binding Affinity (IC50, nM) SERT. How it is done:
as §1
Compounds were dissolved in 100% DMSO at a concentration 100 times the desired highest assay concentration, serially diluted 1:3 in 100% DMSO, and 0.4 μl/well of each solution was dispensed to a Nunc polypropylene, round bottom, 384-well plate. […] The plates were air-dried overnight, 12 μl/well of MicroScint scintillation fluid added, and the plates counted in a Trilux. […]

SMILES strings stand for the structures.

As a reminder, the IC50 is the concentration needed to halve the response being measured. Take `Oc1ccc2c(c1)CN1CCC2(c2ccc(Cl)cc2)C1` (racemic) [Example 2, rac-5-(4-chlorophenyl)-2,5-methano-2,3,4,5-tetrahydro-1H-benzo[c]azepin-8-ol]: the half-inhibitory concentration (IC50) stood at 385 nM on hNET and 53.9 nM at hDAT.

For the molecule `COc1ccc2c(c1)CN1CCC2(c2ccc(Cl)cc2)C1` (racemic) [Example 1, rac-5-(4-chlorophenyl)-8-methoxy-2,5-methano-2,3,4,5-tetrahydro-1H-benzo[c]azepine], the IC50 at hDAT worked out at 93.7 nM.

`FC(F)(F)c1nnc2ccc(-c3ccc4c(c3)CN3CCC4(c4ccc(Cl)cc4)C3)cn12` (racemic) [Example 4, rac-5-(4-chlorophenyl)-2,5-methano-8-(3-(trifluoromethyl)-[1,2,4]triazolo[4,3-a]pyridin-6-yl)-2,3,4,5-tetrahydro-1H-benzo[c]azepine]: the IC50 on hSERT was determined as 11.3 nM.

These data come from patent US9045468B2, “2,5-methano- and 2,5-ethano-tetrahydrobenzazepine derivatives and use thereof to block reuptake of norepinephrine, dopamine, and serotonin” (Albany Molecular Research, Inc., priority 2010, dated 2015).
